Our source for the IC50 values is patent US10408836B2 (priority 2013, dated 2019).

The target of this test is Recombinant N1 protein A/California/04/09 (N1pdm/09-R) (Influenza A virus (H1N1), UniProt C3W5S3).

As a reminder, the IC50 is the concentration that gives 50% inhibition. For the compound `CC(=O)N[C@H]1[C@H]([C@H](O)[C@H](O)CO)OC(C(=O)O)=C[C@@H]1N=C(N)N` [Zan, Zanamivir], the IC50 was determined as 3.7 nM.
